The experiment addresses μ opioid receptor (UniProt P35372). The experiment can be described thus: radioligand binding.

Chains of the proteins cited; added tags and fusions are not shown.
UniProt P35372, whole entry: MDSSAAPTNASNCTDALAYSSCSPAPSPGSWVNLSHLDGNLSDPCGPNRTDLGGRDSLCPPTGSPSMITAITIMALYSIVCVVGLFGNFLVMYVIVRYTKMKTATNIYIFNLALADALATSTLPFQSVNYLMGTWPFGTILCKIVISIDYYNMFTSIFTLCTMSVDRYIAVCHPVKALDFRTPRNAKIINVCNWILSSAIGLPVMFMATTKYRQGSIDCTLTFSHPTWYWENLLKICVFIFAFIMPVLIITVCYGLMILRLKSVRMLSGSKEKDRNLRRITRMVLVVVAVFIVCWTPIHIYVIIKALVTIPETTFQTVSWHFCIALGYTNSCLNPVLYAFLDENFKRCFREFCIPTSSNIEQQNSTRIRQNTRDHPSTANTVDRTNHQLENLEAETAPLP

In publication PMC6005765 (Bioorganic & medicinal chemistry letters, 2018) one finds IC50 data, which are given here for one substance.

The IC50 is the point on the concentration scale where inhibition reaches its midpoint. The substance Deltorphin II (peptide) showed an IC50 of 627 nM.
